This is a sample that favours compounds with a hit; in the whole collection about 2.1% have one here.
Yeast UUG start = alters start codon recognition fidelity in yeast | S. cerevisiae UUG-firefly luciferase reporter, luminescence/redox ratio | activity score, % at 18.7 µM | hit rate 0.13% among 350,000 | AID 602363;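 active means replicate mean at a twofold rise or more, about +100% in these data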;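 further: firefly luciferase made from a UUG start codon reports start codon fidelity; reporter light over untreated wells divided by growth signal over untreated wells; some hits fall short of that in this replicate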
Wnt act = Wnt/beta-catenin pathway activators, primary screen, cell-based, plate reader, single point; Wnt/beta-catenin reporter cell assay, activator; activation, % at 9.35 µM; 300,000 compounds, 1.2% hits; AID 743398, 2014; in the data active = activation above about 30%, passing the limit was not always enough;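 also: 0% = neutral control wells and 100% = positive control wells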
MITF act = activators of MITF-driven TRPM1 promoter reporter, primary screen, cell-based, SK-MEL-5, luciferase, single point. SK-MEL-5 TRPM1-promoter luciferase, 24 h; % of positive control, neutral wells = 0. activation, % at 12.5 µM. 300,000 compounds, 0.75% hits;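 active = mean activation of at least 80% with every replicate also reaching 80%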;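 also: 0% = neutral control wells and 100% = parthenolide positive control wells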
MITF TRPM1 inh = inhibitors of MITF-dependent TRPM1 promoter reporter, primary screen, cell-based, SK-MEL-5, single point, luciferase; SK-MEL-5 TRPM1 promoter luciferase, 24 h; inhibition, % at 12.5 µM; 330,000 compounds, 0.83% hits; AID 488899, 2010;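 active = mean inhibition across replicates of 60% or more, whatever share of single replicates reaches that level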
miR122 inh = miR-122 Renilla sensor signal increase in Huh7, primary screen, miR-122 inhibitor project, cell-based, single point, plate reader | Huh7 miR-122 Renilla luciferase sensor, 48 h; neutral wells = 0, positive control = 100 | activation (reporter increase), % at 12.5 µM | 340,000 compounds, 0.3% hits;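 active = mean replicate activation score at least 90 and every replicate individually at or above 90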;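 also: higher luciferase means less miR-122 activity so hits act as miR-122 inhibitors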
PGC1a acetyl inh = inhibitors of PGC1a acetylation signal, primary screen, cell-based, U2OS, AlphaScreen, inhibitor mode | 350,000 compounds, 0.17% hits | inhibition, % at 15.6 µM | AlphaScreen anti-acetyl-lysine; with virally co-expressed GCN5 acetyltransferase;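 active = every replicate shows inhibition of at least 40%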;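 also: 0% = neutral control wells and 100% = positive control wells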
* marks the source's active call; other numbers are inactive results; . = not tested or not shown; [ ] = another dose, or the depositor's remark.

1: O=C(CSc1ccc(-c2nc3ccccc3[nH]2)cn1)Nc1ccc(S(=O)(=O)N2CCCC2)cc1
2: O=C(CSc1ccccc1)Nc1ccc(-c2nc3ccccc3[nH]2)cc1
3: O=C(CN1CCOCC1)Nc1ccc(-c2nc3ccccc3[nH]2)cc1
4: CN1[C@@H]2c3ccc(C4=CCCC4)c(=O)n3C[C@H]1[C@H](CO)[C@H]2C(=O)N1CCOCC1
5: O=C(C[C@@H]1C=C[C@H](NC(=O)c2ccc3c(c2)OCO3)[C@H](CO)O1)NCc1ccc(Cl)cc1
assay / compound | 1 | 2 | 3 | 4 | 5
PGC1a acetyl inh | . | . | . | . | 1
Wnt act | 41* | 15 | . | . | .
miR122 inh | . | . | . | 3[16.7 µM] | .
MITF act | 13 | 52 | 84* | . | .
Yeast UUG start | . | . | . | . | -12
MITF TRPM1 inh | -13 | -44 | -88 | . | .

6: O=C(O)C[C@@H]1C[C@@H]2c3cc(NS(=O)(=O)c4ccccc4)ccc3O[C@@H]2[C@@H](CO)O1
7: C[C@@H]1CN([C@@H](C)CO)C(=O)Cc2cc(NS(=O)(=O)c3ccc(Cl)cc3)ccc2O[C@H]1CN(C)S(=O)(=O)c1cccs1
8: C[C@@H]1CCCCO[C@H](CN(C)S(C)(=O)=O)[C@@H](C)CN([C@@H](C)CO)C(=O)c2cc(NS(=O)(=O)c3ccc(F)cc3)ccc2O1
9: O=C(N/N=C/c1ccco1)Nc1ccccc1
10: O=C(N/N=C/c1ccc(Cl)cc1)Nc1ccccc1
assay / compound | 6 | 7 | 8 | 9 | 10
PGC1a acetyl inh | 8 | 3 | 9 | 18 | -27
Wnt act | . | . | . | 38* | 15
miR122 inh | . | 1[16.7 µM] | 7[16.7 µM] | -5 | -4
MITF act | . | . | . | 48 | 95*
Yeast UUG start | . | -8 | 17 | -16 | -16
MITF TRPM1 inh | . | . | . | -40 | -97

11: CN1CCN(C(=O)C[C@@H]2C[C@@H]3c4cc(NC(=O)Nc5ccccc5F)ccc4O[C@@H]3[C@@H](CO)O2)CC1
12: C[C@@H]1CN([C@H](C)CO)C(=O)c2cccc(N(C)C)c2O[C@H]1CN(C)C
13: O=C(OCC(=O)N1CCCCC1)c1cccs1
14: O=C(OCC(=O)N1CCCCCC1)c1cccs1
15: C[C@@H]1CN([C@H](C)CO)C(=O)c2cc(C#CC3(O)CCCC3)cnc2O[C@H]1CN(C)C(=O)Cc1cccnc1
assay / compound | 11 | 12 | 13 | 14 | 15
PGC1a acetyl inh | 0 | -4 | -3 | 39 | 3
Wnt act | . | . | 5 | . | .
miR122 inh | 5[16.7 µM] | -3[16.7 µM] | . | -6 | -2[16.7 µM]
MITF act | . | . | 83* | 37 | .
Yeast UUG start | 6 | 21 | -27 | -32 | -7
MITF TRPM1 inh | . | . | -81 | -35 | .

16: C[C@H]1CCCCO[C@H](CN(C)S(=O)(=O)c2cn(C)cn2)[C@@H](C)CN([C@@H](C)CO)C(=O)c2cc(NS(=O)(=O)c3cn(C)cn3)ccc2O1
17: CC(C)c1ccc(NC(=O)[C@H](Cc2c[nH]c3ccccc23)NC(=O)[C@@H]2Cc3ccccc3CN2)cc1
18: COc1ccc(NC(=O)[C@H](Cc2c[nH]c3ccccc23)NC(=O)[C@@H]2Cc3ccccc3CN2)cc1
19: O=C(CN1C(=O)NC2(CCCCC2)C1=O)Nc1ccc2c(c1)OCCCO2
20: O=C(CN1C(=O)NC2(CCCCCC2)C1=O)Nc1ccccc1[N+](=O)[O-]
assay / compound | 16 | 17 | 18 | 19 | 20
PGC1a acetyl inh | -4 | 3 | 63* | . | .
Wnt act | . | 0 | 1 | 44* | -2
miR122 inh | 6[16.7 µM] | 3 | 1 | . | 159*
MITF act | . | -7 | . | 130* | 5
Yeast UUG start | -1 | 9 | -5 | -12 | .
MITF TRPM1 inh | . | 7 | . | -125 | 0

21: N#Cc1ccccc1NC(=O)CN1C(=O)NC2(CCCC2)C1=O
22: CC(C)CCn1cnc2c(sc3nc4c(cc32)CSC(C)(C)C4)c1=O
23: CCCCn1cnc2c(sc3nc4c(cc32)CSC(C)(C)C4)c1=O
24: O=C(C[C@H]1CC[C@@H](NC(=O)NC2CCCCC2)[C@@H](CO)O1)NCc1ccccc1
25: O=C(CCl)N(c1ccccc1)C1CCCCC1
assay / compound | 21 | 22 | 23 | 24 | 25
PGC1a acetyl inh | 4 | . | 3 | -2 | 10
Wnt act | -1 | -2 | 28 | . | 3
miR122 inh | 1 | . | -4 | . | .
MITF act | -8 | 85* | 44 | . | -94
Yeast UUG start | -15 | . | -20 | -1 | .
MITF TRPM1 inh | 6 | -86 | -41 | . | 95*

Whole records as entered above. Values in the order: PGC1a acetyl inh | Wnt act | miR122 inh | MITF act | Yeast UUG start | MITF TRPM1 inh
O=C(CCl)N(c1ccccc1)C1CCCCC1 is listed with 10 | 3 | . | -94 | . | 95*
O=C(C[C@H]1CC[C@@H](NC(=O)NC2CCCCC2)[C@@H](CO)O1)NCc1ccccc1 is listed with -2 | . | . | . | -1 | .

The list continues:
26: CC(NC(=O)c1cc(COc2ccccc2)on1)c1nccs1 (stereo not given)
27: CC(C)NC(=O)c1cc(-c2cccs2)on1
28: Cc1cc(NC(=O)c2cc(-c3cccs3)on2)no1
29: Cc1ccc(O)c(NC(=O)c2cc(-c3cccs3)on2)c1
assay / compound | 26 | 27 | 28 | 29
PGC1a acetyl inh | -11 | 7 | 6 | -7
Wnt act | 29 | 55* | -1 | -12
miR122 inh | 7 | 1 | -5 | -7
MITF act | 97* | . | 12 | 122*
Yeast UUG start | -16 | . | . | -8
MITF TRPM1 inh | -96 | -31 | -20 | -113
